The experiment has as its target Delta-type opioid receptor (Mus musculus, UniProt P32300). As to the kind of experiment: Agonist activity at delta opioid receptor in mouse vas deference. Type of experiment: functional. A digest of the protocol:
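Isolated tissue assay in organ baths with balanced salt solution in physiological buffer, pH 7.5. Delta agonism measured on single mouse vas deferens, mu agonism on myenteric plexus longitudinal muscle strips (2–3 cm) from small intestine of male Hartley guinea pigs. Inhibition of electrically evoked contraction; IC50 (nM) from dose-response curves. DPDPE (MVD) and PL017 (GPI) run as internal standards. Mean ± SE of at least four tissue samples.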

Protein sequences, listed by entry. Tags and fused reporters are not part of them.
UniProt P32300, whole entry: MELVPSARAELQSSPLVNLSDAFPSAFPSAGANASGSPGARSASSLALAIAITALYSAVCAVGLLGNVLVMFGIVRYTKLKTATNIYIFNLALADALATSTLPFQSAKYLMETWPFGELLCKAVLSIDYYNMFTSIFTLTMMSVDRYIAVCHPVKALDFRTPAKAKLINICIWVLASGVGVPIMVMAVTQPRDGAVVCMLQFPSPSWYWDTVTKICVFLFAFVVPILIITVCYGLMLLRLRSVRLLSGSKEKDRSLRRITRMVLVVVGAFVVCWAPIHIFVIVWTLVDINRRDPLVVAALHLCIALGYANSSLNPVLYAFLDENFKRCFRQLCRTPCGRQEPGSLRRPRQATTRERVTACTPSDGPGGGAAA

`CC(C)[C@H](NC(=O)[C@H](CCC(=O)O)NC(=O)[C@H](Cc1ccccc1)NC(=O)[C@H](C)NC(=O)[C@@H](N)Cc1ccc(O)cc1)C(=O)N[C@H](C(=O)NCC(=O)O)C(C)C` [DELTORPHINE II]: the IC50 (as a rule, the concentration that gives 50% inhibition) worked out at 0.53 nM.
